Apparent affinities of Ab-14 variants for a coronavirus HR2 peptide

Reference: Engelhart et al. 2022, doi:10.1038/s41597-022-01779-4. File: FLAb, binding data.

Target: peptide PDVDLGDISGINAS, taken from heptad repeat 2 (HR2) of SARS-CoV-2 spike.

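The starting antibody came from a phage panning campaign against this peptide. The library (AAYL50) carries one to three amino acid substitutions per variant, with no insertions or deletions. The assay is AlphaSeq: two haploid yeast populations carry antibody and antigen on their surface. Binding brings cells together so that they mate, and sequencing counts the barcode pairs among the diploids. Read counts were normalised to the haploid input and turned into Kd by a linear fit to BCL2-family pairs of known affinity, for each replicate. Mating was done three times.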

The variants keep the heavy chain, the linker and the frameworks of Ab-14 (scFv order VH, a 15-residue (Gly4Ser)3 linker, VL).
VH: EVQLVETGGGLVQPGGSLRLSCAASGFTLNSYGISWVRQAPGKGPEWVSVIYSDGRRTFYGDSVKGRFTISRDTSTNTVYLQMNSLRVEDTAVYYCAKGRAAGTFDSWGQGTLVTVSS
VL: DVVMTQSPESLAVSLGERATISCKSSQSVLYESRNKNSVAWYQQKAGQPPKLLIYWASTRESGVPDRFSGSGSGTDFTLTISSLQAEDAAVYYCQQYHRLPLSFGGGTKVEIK

Sequences are complete VL domains. Scale: log10 of Kd in nM, estimated from mating counts; low values are strong binders. A mean of the replicates is given; it leaves out those without a signal. Where no diploid with the target was found in that replicate, the entry reads "nd": below detection, most likely a poor binder, though not proof of it. Background: pairings of library AAYL50 with three empty control strains gave a value in 18% of cases (median 4.19, 5th percentile 2.99). Values in that range, when seen in few replicates, are hard to tell from nonspecific mating. The control count says in how many pairings with the empty strains this scFv gave a signal, with their mean in brackets. For reference, the parent read 0.65 as the reference entry and 1.68 as a member of this library.

VL | replicates, log10 nM | log10 Kd (nM), mean | signal with controls
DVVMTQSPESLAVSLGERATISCKSSQSLFYESRNKNSVAWYQQKAGQPPKLLIYWASTRESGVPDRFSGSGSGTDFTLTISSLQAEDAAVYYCQQYHPLPLSFGGGTKVEIK | nd / 3.31 / nd | 3.31 | 0/9
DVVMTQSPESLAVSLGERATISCKSSQSWLYESRNKNSVAWYQQKAGQPPKLLIYWKSTRESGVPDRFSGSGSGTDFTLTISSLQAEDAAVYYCQQVHRLPLSFGGGTKVEIK | nd / nd / nd | nd | 0/9
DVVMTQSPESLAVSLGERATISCKSSQSVLPESRNKNSVCWYQQKAGQPPKLLIYWACTRESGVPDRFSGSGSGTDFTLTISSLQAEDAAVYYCQQYHRLPLSFGGGTKVEIK | nd / 4.30 / 3.61 | 3.96 | 4/9 (3.92)
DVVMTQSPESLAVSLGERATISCKSSCSVLYESRNKNSVAWYQQKAGQPPKLLIYWASTRESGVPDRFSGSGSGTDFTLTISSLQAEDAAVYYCQRYHRLPRSFGGGTKVEIK | nd / 3.85 / nd | 3.85 | 4/9 (4.22)
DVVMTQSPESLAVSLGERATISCESSQSVLYENRNKNSVAWYQQKAGQPPKLLIYWASTRESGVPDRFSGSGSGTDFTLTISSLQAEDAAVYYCQQGHRLPLSFGGGTKVEIK | nd / nd / nd | nd | 0/9
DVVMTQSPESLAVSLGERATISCKSSYSVLYESRNKNMVAWYQQKAGQPPKLLIYWASTRESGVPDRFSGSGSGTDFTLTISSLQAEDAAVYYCQQYNRLPLSFGGGTKVEIK | nd / 3.59 / 2.86 | 3.23 | 0/9
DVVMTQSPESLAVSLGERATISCKSSQSVLYESTNKPSVAWYQQKAGQPPKLLIYWASTREIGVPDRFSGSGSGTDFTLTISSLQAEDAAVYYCQQYHRLPLSFGGGTKVEIK | nd / nd / nd | nd | 0/9
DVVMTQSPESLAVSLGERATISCKSNQSVLYESRNKNSVAWYQQKAGQPPKLLIYWASTRESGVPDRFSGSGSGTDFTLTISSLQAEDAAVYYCRQYHRLPLWFGGGTKVEIK | nd / 4.13 / nd | 4.13 | 6/9 (4.31)
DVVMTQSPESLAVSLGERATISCASSQSVLYEKRWKNSVAWYQQKAGQPPKLLIYWASTRESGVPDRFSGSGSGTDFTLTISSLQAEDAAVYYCQQYHRLPLSFGGGTKVEIK | nd / 2.71 / 3.38 | 3.05 | 1/9 (3.58)
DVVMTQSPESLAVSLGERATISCKSSQSRLYESFNKNSVAWYQQKAGQPPKLLIYWASTRPSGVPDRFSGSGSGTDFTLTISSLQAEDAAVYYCQQYHRLPLSFGGGTKVEIK | 1.77 / 2.45 / 2.35 | 2.19 | 0/9
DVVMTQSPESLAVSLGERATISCKSSQSVLYESRNFNSVAWYQQKAGQPPKLLIYWKSTRESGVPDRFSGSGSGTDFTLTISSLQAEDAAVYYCVQYHRLPLSFGGGTKVEIK | 1.48 / 1.44 / 1.50 | 1.47 | 3/9 (4.36)
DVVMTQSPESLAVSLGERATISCKSSISVLYESRNKNSVIWYQQKAGQPPKLLIYWASTRESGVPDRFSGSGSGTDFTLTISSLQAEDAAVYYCQQYHRVPLSFGGGTKVEIK | 6.00 / 3.87 / nd | 4.94 | 5/9 (4.36)
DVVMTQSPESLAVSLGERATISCKSSQSVLYESRNKNSVNWYQQKAGQPPKLLIYSASTRESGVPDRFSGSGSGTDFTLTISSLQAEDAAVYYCWQYHRLPLSFGGGTKVEIK | 3.79 / nd / nd | 3.79 | 2/9 (3.07)
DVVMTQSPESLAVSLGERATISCKSSVSALYESRNKNSVAWYQQKAGQPPKLLIYWASTRESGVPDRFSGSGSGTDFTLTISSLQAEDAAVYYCQQYHQLPLSFGGGTKVEIK | 0.26 / 0.61 / 0.46 | 0.44 | 2/9 (4.43)
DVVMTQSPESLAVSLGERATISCKSSQSVLKESRNKASVAWYQQKAGQPPKLLIYWASTRESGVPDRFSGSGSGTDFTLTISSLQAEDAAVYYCQQYHRLPFSFGGGTKVEIK | 2.38 / 2.10 / 1.96 | 2.15 | 1/9 (2.85)
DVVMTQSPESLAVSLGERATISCKSCQSVLYESRNKNSVHWYQQKAGQPPKLLIYWASTRESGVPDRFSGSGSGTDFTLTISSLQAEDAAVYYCQQYHGLPLSFGGGTKVEIK | nd / 4.00 / 4.47 | 4.23 | 6/9 (4.63)
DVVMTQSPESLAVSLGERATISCESSQSVLYESYNKNSVAWYQQKAGQPPKLLIYWASTRESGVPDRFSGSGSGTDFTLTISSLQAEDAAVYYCQQYHRLPLSFGGGTKVEIK | 0.69 / 0.88 / 0.68 | 0.75 | 0/9
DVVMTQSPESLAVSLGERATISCKSSQSVLYESRNKNSVAWYQQKAGQPPKLLIYWASHRESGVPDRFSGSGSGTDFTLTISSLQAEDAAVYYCQQYHRLPWWFGGGTKVEIK | 3.04 / 3.25 / 3.46 | 3.25 | 1/9 (3.09)
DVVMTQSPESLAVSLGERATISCKSSCSVLYESRNKNSVAWYQQKAGQPPKLLIYWISTRESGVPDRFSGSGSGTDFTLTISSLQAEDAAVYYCQQYHRAPLSFGGGTKVEIK | nd / 5.09 / 5.34 | 5.21 | 1/9 (3.02)
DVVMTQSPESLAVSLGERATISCKSSQSVLYGSRNKNSRAWYQQKAGQPPKLLIYWHSTRESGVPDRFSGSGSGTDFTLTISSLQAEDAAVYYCQQYHRLPLSFGGGTKVEIK | nd / nd / nd | nd | 0/9
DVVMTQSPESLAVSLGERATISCKSSQSVLYESRNKNSVAWYQQKAGQPPKLLIYGASTMESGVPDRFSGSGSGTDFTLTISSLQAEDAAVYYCQQYHRAPLSFGGGTKVEIK | nd / nd / nd | nd | 1/9 (3.39)
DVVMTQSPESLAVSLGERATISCKSSQSVLYESRNKNTVAWYQQKAGQPPKLLIYWASTREKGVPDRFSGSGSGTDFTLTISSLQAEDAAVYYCQQYHRLPLSFGGGTKVEIK | nd / nd / nd | nd | 0/9
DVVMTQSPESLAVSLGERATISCYSSQSVLYRSWNKNSVAWYQQKAGQPPKLLIYWASTRESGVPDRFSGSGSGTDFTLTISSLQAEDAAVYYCQQYHRLPLSFGGGTKVEIK | 1.83 / 1.93 / 1.99 | 1.92 | 3/9 (3.74)

4 of these entries, quoted again:

VL | replicates, log10 nM | log10 Kd (nM), mean | signal with controls
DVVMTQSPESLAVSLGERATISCKSSQSVLYESRNFNSVAWYQQKAGQPPKLLIYWKSTRESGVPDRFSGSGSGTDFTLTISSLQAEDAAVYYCVQYHRLPLSFGGGTKVEIK | 1.48 / 1.44 / 1.50 | 1.47 | 3/9 (4.36)
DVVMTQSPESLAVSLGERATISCKSSQSVLYESRNKNSVAWYQQKAGQPPKLLIYWASHRESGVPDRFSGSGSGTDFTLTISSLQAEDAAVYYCQQYHRLPWWFGGGTKVEIK | 3.04 / 3.25 / 3.46 | 3.25 | 1/9 (3.09)
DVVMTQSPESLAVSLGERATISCKSSCSVLYESRNKNSVAWYQQKAGQPPKLLIYWASTRESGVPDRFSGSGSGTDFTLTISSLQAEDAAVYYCQRYHRLPRSFGGGTKVEIK | nd / 3.85 / nd | 3.85 | 4/9 (4.22)
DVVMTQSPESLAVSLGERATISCESSQSVLYENRNKNSVAWYQQKAGQPPKLLIYWASTRESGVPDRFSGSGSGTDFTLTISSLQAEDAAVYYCQQGHRLPLSFGGGTKVEIK | nd / nd / nd | nd | 0/9